Patent EP4831169A1, “NOVEL COMPOUND USED AS CBP/P300 INHIBITOR, AND PHARMACEUTICAL COMPOSITION FOR PREVENTING OR TREATING CANCER, INFLAMMATORY DISORDERS, OR AUTOIMMUNE DISEASES COMPRISING SAME AS ACTIVE INGREDIENT” (dated 2026)

Amino acid sequences for entries named in this document (tags omitted). Residues count along the entry.
UniProt Q92793, 1085-1192 limits assumed: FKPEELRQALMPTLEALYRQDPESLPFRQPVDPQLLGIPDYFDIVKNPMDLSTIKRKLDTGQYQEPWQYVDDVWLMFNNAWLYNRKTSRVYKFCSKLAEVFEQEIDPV

Assays:
BRD4 (BD1) protein = BRD4 (BD1) protein (Homo sapiens, UniProt O60885); assay: BRD4 bromodomain TR-FRET inhibitory activity assay; conditions: read-out: BRD4 (BD1) IC50, Table 4
CBP BRD protein = CBP BRD protein (Homo sapiens, UniProt Q92793); assay: CBP bromodomain TR-FRET inhibitory activity assay; conditions: read-out: CBP BRD IC50, Table 3

IC50 (BRD4 (BD1) protein) | IC50 (CBP BRD protein) | Structure (SMILES)
> 5 µM | < 0.5 µM | Cc1noc(-c2cc3nc(-c4cncn4C)n(-c4cc(NC(C)C)c5c(c4)n(C)c(=O)n5C)c3cc2F)n1
0.5 to 5 µM | < 0.5 µM | Cn1cc(-c2cc3nc(C(C)(C)C)n(-c4cc(N5CC(C)(O)C5)c5c(c4)n(C)c(=O)n5C)c3cc2Cl)cn1
> 5 µM | < 0.5 µM | Cn1cc(-c2cc3nc(-c4cncn4C)n(-c4cc(NC5CCC5)c5c(c4)n(C)c(=O)n5C)c3cc2F)cn1
0.5 to 5 µM | < 0.5 µM | Cn1cc(-c2cc3nc(C(C)(C)C)n(-c4cc(N5CC(C)(O)C5)c5c(c4)n(C)c(=O)n5C)c3cc2OC(F)(F)F)cn1
> 5 µM | 0.5 to 5 µM | COc1cc(-c2cc3nc(-c4cncn4C)n(-c4cc(C5CCOCC5)c5c(c4)n(C)c(=O)n5C)c3cc2F)ccc1Cl
0.5 to 5 µM | < 0.5 µM | Cn1cc(-c2cc3nc(-c4cncn4C)n(-c4cc(N5CC6COCC6C5)c5c(c4)n(C)c(=O)n5C)c3cc2F)cn1 (stereo not shown)
> 5 µM | < 0.5 µM | Cn1cc(-c2cc3nc(-c4cncn4C)n(-c4cc(N5CCOCC5)c5c(c4)n(C)c(=O)n5C)c3cc2C#N)cn1
0.5 to 5 µM | < 0.5 µM | CN(C)c1cc2c(cc1-c1cnn(C)c1)nc(C(C)(C)C)n2-c1cc(N2CCOCC2)c2c(c1)n(C)c(=O)n2C
> 5 µM | < 0.5 µM | Cc1sccc1-c1nc2cc(-c3cnn(C)c3)c(F)cc2n1-c1cc(C(C)C)c2c(c1)n(C)c(=O)n2C
> 5 µM | < 0.5 µM | Cn1cc(-c2cc3nc(-c4cncn4C)n(-c4cc(C5=CCCCC5)c5c(c4)n(C)c(=O)n5C)c3cc2F)cn1
> 5 µM | < 0.5 µM | Cn1cc(-c2cc3nc(-c4cncn4C)n(-c4ccc5c(c4)n(C)c(=O)n5C)c3cc2C(F)F)cn1
> 5 µM | > 5 µM | CC(=O)Nc1cc2c(cc1-c1cnn(C)c1)nc(C(C)(C)C)n2-c1cc(N2CCOCC2)c2c(c1)n(C)c(=O)n2C
0.5 to 5 µM | < 0.5 µM | CC(C)Nc1cc(-n2c(-c3cncn3C)nc3cc(-c4cnn(C)c4)c(F)cc32)cc2c1n(C)c(=O)n2C
> 5 µM | 0.5 to 5 µM | CNC(=O)c1ccc(-c2cc3nc(-c4cncn4C)n(-c4ccc5c(c4)n(C)c(=O)n5C)c3cc2C(=O)NC)cc1F
> 5 µM | < 0.5 µM | Cn1cc(-c2cc3nc(C(C)(C)C)n(-c4cc(N5CCOCC5)c5c(c4)n(C)c(=O)n5C)c3cc2C=O)cn1
> 5 µM | < 0.5 µM | Cc1ncc(-c2cc3nc(-c4cncn4C)n(-c4cc(N5CCSCC5)c5c(c4)n(C)c(=O)n5C)c3cc2C(F)F)s1
> 5 µM | < 0.5 µM | CC(C)c1cc(-n2c(-c3cncn3C)nc3cc(-c4cnn(C)c4)c(F)cc32)cc2c1n(C)c(=O)n2C
> 5 µM | > 5 µM | CC(C)c1cc(-n2c(C3(C(F)(F)F)CC3)nc3cc(-c4cnn(C)c4)c(F)cc32)cc2c1n(C)c(=O)n2C
> 5 µM | < 0.5 µM | Cn1cc(-c2cc3nc(C(C)(C)C)n(-c4cc(N5CCC(O)C5)c5c(c4)n(C)c(=O)n5C)c3cc2F)cn1 (stereo not shown)
0.5 to 5 µM | < 0.5 µM | Cn1cncc1-c1nc2cc(-c3ccc4c(c3)OCC(=O)N4)c(F)cc2n1-c1cc(C2CCOCC2)c2c(c1)n(C)c(=O)n2C
> 5 µM | < 0.5 µM | Cn1c(=O)n(C)c2c(N3CC(C)(O)C3)cc(-n3c(C(C)(C)C)nc4cc(-c5cnn(CCO)c5)c(C(F)F)cc43)cc21

IC50 (BRD4 (BD1) protein) | IC50 (CBP BRD protein) | Structure (SMILES)
> 5 µM | < 0.5 µM | CNC(=O)c1ccc(-c2cc3nc(-c4cncn4C)n(-c4ccc5c(c4)n(C)c(=O)n5C)c3cn2)cc1F
> 5 µM | < 0.5 µM | CC(C)n1cc(-c2cc3nc(-c4cncn4C)n(-c4cc(N5CCOCC5)c5c(c4)n(C)c(=O)n5C)c3cc2F)cn1
> 5 µM | 0.5 to 5 µM | CC(=O)Nc1ccc(-c2cc3nc(-c4cncn4C)n(-c4cc(C5=CCN(C(=O)OC(C)(C)C)CC5)c5c(c4)n(C)c(=O)n5C)c3cc2F)cc1
> 5 µM | 0.5 to 5 µM | Cn1cc(-c2cc3nc(-c4cncn4C)n(-c4cc(C(C)(C)O)c5c(c4)n(C)c(=O)n5C)c3cc2F)cn1
< 0.5 µM | < 0.5 µM | Cn1cc(-c2cc3nc(-c4cncn4C)n(-c4cc(N5CC6C[C@H]5CO6)c5c(c4)n(C)c(=O)n5C)c3cc2C(F)F)cn1
> 5 µM | < 0.5 µM | Cn1cc(-c2cc3nc(-c4cncn4C)n(-c4cc(NCC5CCOCC5)c5c(c4)n(C)c(=O)n5C)c3cc2F)cn1
> 5 µM | < 0.5 µM | Cn1cc(-c2cc3nc(C(C)(C)C)n(-c4cc(N5CCOCC5)c5c(c4)n(C)c(=O)n5C)c3cc2F)cn1
> 5 µM | < 0.5 µM | CCn1c(=O)n(C)c2cc(-n3c(-c4cncn4C)nc4cc(-c5cnn(C)c5)c(F)cc43)ccc21
> 5 µM | < 0.5 µM | Cn1cc(-c2cc3nc(-c4cncn4C)n(-c4cc(Cl)c5c(c4)n(C)c(=O)n5C)c3cc2F)cn1
> 5 µM | 0.5 to 5 µM | CN(C)C(=O)c1cc2nc(C(C)(C)C)n(-c3cc(N4CCOCC4)c4c(c3)n(C)c(=O)n4C)c2cc1F
> 5 µM | < 0.5 µM | Cn1cncc1-c1nc2cc(-c3cnn(CC4CC4)c3)c(F)cc2n1-c1cc(N2CCOCC2)c2c(c1)n(C)c(=O)n2C
> 5 µM | < 0.5 µM | Cn1cc(-c2cc3nc(C(C)(C)C)n(-c4cc(-c5ccncc5)c5c(c4)n(C)c(=O)n5C)c3cc2F)cn1
> 5 µM | < 0.5 µM | Cc1ncc(-c2cc3nc(C(C)(C)C)n(-c4cc(N5CCC(O)CC5)c5c(c4)n(C)c(=O)n5C)c3cc2Cl)s1
0.5 to 5 µM | < 0.5 µM | Cn1cc(-c2cc3nc(-c4cncn4C)n(-c4cc(N5CCOCC5)c5c(c4)n(C)c(=O)n5C)c3cc2OC(F)F)cn1
> 5 µM | < 0.5 µM | Cn1cc(-c2cc3nc(C(C)(C)C)n(-c4cc(N5CCC(=O)CC5)c5c(c4)n(C)c(=O)n5C)c3cc2C(F)(F)F)cn1
> 5 µM | 0.5 to 5 µM | CC(C)c1cc(-n2c(C3(C)CCC3)nc3cc(-c4cnn(C)c4)c(F)cc32)cc2c1n(C)c(=O)n2C
> 5 µM | 0.5 to 5 µM | Cc1sccc1-c1nc2cc(C3=CCOCC3)c(F)cc2n1-c1cc(C2CCOCC2)c2c(c1)n(C)c(=O)n2C
> 5 µM | < 0.5 µM | Cc1ncc(-c2cc3nc(C(C)(C)C)n(-c4cc(N5CCOCC5)c5c(c4)n(C)c(=O)n5C)c3cc2C(F)(F)F)s1
> 5 µM | < 0.5 µM | Cn1cc(-c2cc3nc(-c4cncn4C)n(-c4cc(N5CCSCC5)c5c(c4)n(C)c(=O)n5C)c3cc2C(F)F)cn1
> 5 µM | < 0.5 µM | C[C@@H]1COCCN1c1cc(-n2c(C(C)(C)C)nc3cc(-c4cnn(C)c4)c(F)cc32)cc2c1n(C)c(=O)n2C
0.5 to 5 µM | < 0.5 µM | COC(=O)c1cc2c(cc1-c1cnn(C)c1)nc(-c1cncn1C)n2-c1ccc2c(c1)n(C)c(=O)n2C

IC50 (BRD4 (BD1) protein) | IC50 (CBP BRD protein) | Structure (SMILES)
> 5 µM | < 0.5 µM | CC(=O)Nc1ccc(-c2cc3nc(-c4cncn4C)n(-c4cc(NC5CC5)c5c(c4)n(C)c(=O)n5C)c3cc2F)cc1
> 5 µM | < 0.5 µM | C=C(C)c1cc(-n2c(-c3cncn3C)nc3cc(-c4cnn(C)c4)c(F)cc32)cc2c1n(C)c(=O)n2C
> 5 µM | < 0.5 µM | Cn1c(=O)n(C)c2c(N3CC(C)(O)C3)cc(-n3c(C(C)(C)C)nc4cc(N5CCCC5=O)c(C(F)F)cc43)cc21
> 5 µM | < 0.5 µM | CNC(=O)c1ccc(-c2cc3nc(-c4cncn4C)n(-c4cc(C5CCOCC5)c5c(c4)n(C)c(=O)n5C)c3cc2F)cc1F
> 5 µM | < 0.5 µM | Cc1ccc2c(-c3nc4cc(-c5cnn(C)c5)c(C(F)F)cc4n3-c3ccc4c(c3)n(C)c(=O)n4C)c[nH]c2c1
0.5 to 5 µM | < 0.5 µM | CC(=O)Nc1ccc(-c2cc3nc(-c4cncn4C)n(-c4cc(N5CCCC5)c5c(c4)n(C)c(=O)n5C)c3cc2F)cc1
> 5 µM | < 0.5 µM | C#CC(C)(C)c1nc2cc(-c3cnn(C)c3)c(C(F)(F)F)cc2n1-c1cc(N2CCOCC2)c2c(c1)n(C)c(=O)n2C
> 5 µM | < 0.5 µM | CC(C)=Cc1cc(-n2c(-c3cncn3C)nc3cc(-c4cnn(C)c4)c(F)cc32)cc2c1n(C)c(=O)n2C
> 5 µM | < 0.5 µM | Cn1cc(-c2cc3nc(-c4cncn4C)n(-c4cc(NC(C)(C)C)c5c(c4)n(C)c(=O)n5C)c3cc2F)cn1
> 5 µM | > 5 µM | Cc1ccc2c(-c3nc4cc(Br)c(C#N)cc4n3-c3ccc4c(c3)n(C)c(=O)n4C)c[nH]c2c1
> 5 µM | < 0.5 µM | CNC(=O)c1ccc(-c2cc3nc(-c4cncn4C)n(-c4ccc5c(c4)n(C)c(=O)n5C)c3cc2C#N)cc1F
0.5 to 5 µM | < 0.5 µM | COC1(C)CN(c2cc(-n3c(-c4cncn4C)nc4cc(-c5cnn(C)c5)c(F)cc43)cc3c2n(C)c(=O)n3C)C1
> 5 µM | < 0.5 µM | Cn1cc(-c2cc3nc(C(C)(C)C)n(-c4ccc5c(c4)n(C)c(=O)n5C)c3cc2C(F)F)cn1
0.5 to 5 µM | < 0.5 µM | Cn1cc(-c2cc3nc(-c4cncn4C)n(-c4cc(N5CCC5)c5c(c4)n(C)c(=O)n5C)c3cc2C(F)(F)F)cn1
> 5 µM | < 0.5 µM | Cn1cc(-c2cc3nc(C(C)(C)C)n(-c4cc(C5CCOCC5)c5c(c4)n(C)c(=O)n5C)c3cc2C#N)cn1
> 5 µM | < 0.5 µM | Cc1nnc(-c2cc3nc(C(C)(C)C)n(-c4cc(N5CCOCC5)c5c(c4)n(C)c(=O)n5C)c3cc2F)[nH]1
> 5 µM | < 0.5 µM | CCCOc1cc(-n2c(-c3cncn3C)nc3cc(-c4cnn(C)c4)c(F)cc32)cc2c1n(C)c(=O)n2C
> 5 µM | 0.5 to 5 µM | CNc1ccc(-c2cc3nc(-c4cncn4C)n(-c4cc(C5CCOCC5)c5c(c4)n(C)c(=O)n5C)c3cc2F)cc1
0.5 to 5 µM | 0.5 to 5 µM | CNC(=O)c1ccc(-c2cc3nc(-c4cncn4C)n(-c4ccc5c(c4)n(C)c(=O)n5C)c3cc2C(C)(C)O)cc1F

Structure (SMILES) | IC50 (BRD4 (BD1) protein) | IC50 (CBP BRD protein)
COC(=O)C1CN1c1cc(-n2c(C(C)(C)C)nc3cc(-c4cnn(C)c4)c(F)cc32)cc2c1n(C)c(=O)n2C (stereo not shown) | > 5 µM | < 0.5 µM
